Protein sequences, listed by entry. Tags and fused reporters are not part of them. Residues count along the entry.
UniProt P11717, 41-2491, species assumed: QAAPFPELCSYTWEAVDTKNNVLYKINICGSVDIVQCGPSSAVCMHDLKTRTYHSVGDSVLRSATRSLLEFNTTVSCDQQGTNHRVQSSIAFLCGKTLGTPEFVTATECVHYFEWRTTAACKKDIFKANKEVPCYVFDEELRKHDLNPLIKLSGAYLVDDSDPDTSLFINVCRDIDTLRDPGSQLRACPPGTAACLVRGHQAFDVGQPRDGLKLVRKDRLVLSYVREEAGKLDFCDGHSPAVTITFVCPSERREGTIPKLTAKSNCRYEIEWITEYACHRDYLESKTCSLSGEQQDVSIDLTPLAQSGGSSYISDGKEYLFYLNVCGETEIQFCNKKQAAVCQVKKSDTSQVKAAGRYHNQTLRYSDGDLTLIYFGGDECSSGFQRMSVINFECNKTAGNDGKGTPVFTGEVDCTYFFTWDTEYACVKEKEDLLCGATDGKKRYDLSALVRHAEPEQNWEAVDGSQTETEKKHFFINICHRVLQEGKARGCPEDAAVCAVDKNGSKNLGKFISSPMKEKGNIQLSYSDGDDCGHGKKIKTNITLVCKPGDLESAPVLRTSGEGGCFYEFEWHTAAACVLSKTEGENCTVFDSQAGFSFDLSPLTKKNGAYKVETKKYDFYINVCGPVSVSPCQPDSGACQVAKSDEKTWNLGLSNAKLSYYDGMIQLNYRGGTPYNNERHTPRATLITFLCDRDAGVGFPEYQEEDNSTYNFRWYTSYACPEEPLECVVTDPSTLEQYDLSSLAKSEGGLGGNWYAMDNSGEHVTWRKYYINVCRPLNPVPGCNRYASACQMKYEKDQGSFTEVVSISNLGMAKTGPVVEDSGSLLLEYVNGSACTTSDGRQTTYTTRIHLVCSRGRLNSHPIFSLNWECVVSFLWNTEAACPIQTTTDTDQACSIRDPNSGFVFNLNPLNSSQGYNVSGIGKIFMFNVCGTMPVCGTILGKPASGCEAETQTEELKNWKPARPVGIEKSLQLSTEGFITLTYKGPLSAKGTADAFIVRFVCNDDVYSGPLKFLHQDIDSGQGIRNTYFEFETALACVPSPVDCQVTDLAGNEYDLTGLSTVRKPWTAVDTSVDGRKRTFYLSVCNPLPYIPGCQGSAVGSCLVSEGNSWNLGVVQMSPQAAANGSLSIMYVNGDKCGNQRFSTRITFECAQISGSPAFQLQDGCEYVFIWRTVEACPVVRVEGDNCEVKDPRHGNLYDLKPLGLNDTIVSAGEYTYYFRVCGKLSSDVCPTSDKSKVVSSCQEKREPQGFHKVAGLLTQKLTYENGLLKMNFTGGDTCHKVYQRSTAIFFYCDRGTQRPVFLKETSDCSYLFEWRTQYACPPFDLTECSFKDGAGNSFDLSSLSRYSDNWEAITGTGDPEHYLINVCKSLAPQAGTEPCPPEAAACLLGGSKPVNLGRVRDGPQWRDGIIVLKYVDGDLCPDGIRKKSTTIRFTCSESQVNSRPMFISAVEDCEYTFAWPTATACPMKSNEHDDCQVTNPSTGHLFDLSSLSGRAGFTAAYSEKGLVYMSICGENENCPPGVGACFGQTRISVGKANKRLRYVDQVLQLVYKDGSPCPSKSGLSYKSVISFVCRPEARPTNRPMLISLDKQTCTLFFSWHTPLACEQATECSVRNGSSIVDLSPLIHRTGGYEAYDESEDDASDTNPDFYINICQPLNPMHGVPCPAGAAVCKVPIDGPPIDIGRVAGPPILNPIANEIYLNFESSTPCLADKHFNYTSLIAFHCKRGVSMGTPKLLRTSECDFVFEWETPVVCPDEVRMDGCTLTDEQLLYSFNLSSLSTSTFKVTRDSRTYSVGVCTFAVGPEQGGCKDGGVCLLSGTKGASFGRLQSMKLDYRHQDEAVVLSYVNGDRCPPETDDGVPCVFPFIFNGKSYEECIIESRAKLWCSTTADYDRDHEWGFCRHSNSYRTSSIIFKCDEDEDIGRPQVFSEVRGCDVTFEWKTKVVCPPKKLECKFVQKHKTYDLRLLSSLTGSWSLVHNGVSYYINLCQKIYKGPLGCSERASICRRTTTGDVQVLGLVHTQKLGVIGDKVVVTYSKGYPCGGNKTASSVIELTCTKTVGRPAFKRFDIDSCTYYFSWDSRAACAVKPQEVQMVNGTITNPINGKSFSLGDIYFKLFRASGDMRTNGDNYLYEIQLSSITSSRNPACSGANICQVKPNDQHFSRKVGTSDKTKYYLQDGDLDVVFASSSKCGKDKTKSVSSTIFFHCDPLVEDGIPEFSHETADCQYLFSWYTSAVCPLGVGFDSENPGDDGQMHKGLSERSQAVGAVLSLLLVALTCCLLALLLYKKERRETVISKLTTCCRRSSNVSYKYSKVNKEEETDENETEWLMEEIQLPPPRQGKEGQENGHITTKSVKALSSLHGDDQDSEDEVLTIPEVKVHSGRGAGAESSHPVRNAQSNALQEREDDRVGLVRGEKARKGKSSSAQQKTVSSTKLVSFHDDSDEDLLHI

According to patent US11357834B2, “Recombinant α-galactosidase A for treatment of Fabry disease” (Amicus Therapeutics, Inc., priority 2017, dated 2022):

Tests used:
CIMPR = CIMPR (Homo sapiens, UniProt P11717); assay: Immobilized CIMPR affinity column binding, elution with free M6P; details: rhα-Gal A clones produced by perfusion culture
Source text: Purification on AEX columns selects for phosphorylated/sialylated enzyme with low content of neutral glycans, if molecules with such characteristics are present in the cell culture supernatant. The binding to the CIMPR can be assessed by binding the enzyme preparation to immobilized CIMPR followed by elution with increasing concentrations of M6P.
A desirable product attribute is high binding to the CIMPR. Binding to CIMPR presents a pathway for enzyme uptake into the lysosome which represents a major reservoir of accumulated substrate. The ability of the enzyme candidates to bind in vivo to the correct receptor for internalization was estimated by applying the cell supernatant from each pool to a CIMPR column (FIGS. 6A-6F). […] Increasing concentrations of free M6P from 0 to 1 mM, followed by a step to 5 mM, were passed over the column to elute the bound enzyme. The degree of CIMPR binding for the cell pools ranged from 37% to 52% (as measured by activity). Pools 1 and 4 had the highest CIMPR binding with 52% with pool 2 slightly less at 51%. Thus, these pools had more favorable CIMPR binding characteristics than the other pools at the same time point during culturing.
The ability of recombinant α-galactosidase A to bind to a CIMPR column in vitro is an indicator of that recombinant enzyme's ability to bind to the receptor in vivo and target the lysosomes. Two clones of rhα-Gal A (clone 01-003 and clone 04-023) were produced by perfusion culture and the binding was determined by passing each enzyme over an immobilized CIMPR affinity column (FIG. 7), as described above. FIGS. 7A-7C illustrate that 90% of Fabrazyme (agalsidase beta) bound to the CIMPR column, 80% of rhα-Gal A (01-003), and 96% of rhα-Gal A (04-023) bound the CIMPR column. FIGS. 7D-7F illustrate how the expression and purification can be varied to generate molecules that have higher binding affinity for the CIMPR column.

[1] = N-glycan profile (HPLC of 2AA labeled glycans or LC/MS/MS); format: physicochemical; details: normal-phase LC of 2-anthranilic acid derivatives, elution 15-30 mins
Method: The glycan profiles of enzymes produced by both clones were analyzed in order to elaborate on in vitro and in vivo characteristics that could affect clinical efficacy. Glycans from protein samples of each α-Gal A were removed by peptide N-glycosidase F (PNGase) under standard denaturing and reducing conditions. The extent of deglycosylation was assessed on SDS-PAGE with the protein displaying a shift to lower apparent molecular weight upon deglycosylation (FIG. 9). Following release of the glycans from the protein backbone, the glycans are reacted with anthranilic acid to form 2-anthranilic acid derivatives, which are then separated by normal-phase chromatography on an amino column.
Normal phase liquid chromatography on amino columns is a valuable technique to compare the relative abundance of all glycan forms. The retention time is influenced by charge density and overall oligosaccharide size. Glycans eluting between 15-30 minutes are neutral glycan consisting of high-mannose and asialyo-complex oligosaccharides.
A detailed comparison of the glycans for Replagal (agalsidase alfa), Fabrazyme (agalsidase beta), rhα-Gal A 04-023 and rhα-Gal A 01-003 is provided in Tables 2-4 below. Table 2 provides a summary of a monosaccharide analysis, Table 3 provide a summary of the glycan “families”, and Table 4 provides a summary of the glycan structures. […]

bound to the CIMPR column (CIMPR) [%] | Substance | Neutral glycans, share of the total glycans (FIG. 10) [1] [%]
90 | Fabrazyme: homodimeric recombinant human α-Gal A marketed by Genzyme under the name Fabrazyme [reference compound] | ~13
96 | rhα-Gal A 04-023: recombinant human α-galactosidase A produced by CHO cell clone 04-023 | 
80 | rhα-Gal A 01-003: recombinant human α-galactosidase A produced by CHO cell clone 01-003 | 
